# Assay results as given in ChEMBL document CHEMBL4308835, “Fluorine-Substituted Pyrrolo[2,3- d]Pyrimidine Analogues with Tumor Targeting via Cellular Uptake by Folate Receptor α and the Proton-Coupled Folate Transporter and Inhibition of de Novo Purine Nucleotide Biosynthesis” (J Med Chem, 2018).
# Experiments:
# [1] = Antiproliferative activity in Chinese hamster R2 cells deficient in RFC, PCFT, and FRalpha assessed as reduction in cell growth after 96 hrs by Cell-Titer Blue assay; assay type: cell-based; conditions: Cricetulus griseus, R2, 96 h
# [2] = Binding affinity to human FRbeta expressed in Chinese hamster D4 cells assessed as antiproliferative activity measured as reduction in cell growth after 96 hrs by Cell-Titer Blue assay
# [3] = Binding affinity to human FRalpha expressed in Chinese hamster RT16 cells assessed as antiproliferative activity measured as reduction in cell growth after 96 hrs by Cell-Titer Blue assay
SMILES,IC50 [1] [nM],IC50 [2] [nM],IC50 [3] [nM]
Nc1nc2[nH]c(CCCCc3ccc(C(=O)N[C@@H](CCC(=O)O)C(=O)O)c(F)c3)cc2c(=O)[nH]1,> 1000,–,–
Nc1nc2[nH]c(CCCc3csc(C(=O)N[C@@H](CCC(=O)O)C(=O)O)c3)cc2c(=O)[nH]1,–,0.34,0.33
